Values of other authors, collected in article PMC9094701, “Multiple-Allele MHC Class II Epitope Engineering by a Molecular Dynamics-Based Evolution Protocol” (Frontiers in Immunology, 2022).

Target: DRB1*01:01 (Homo sapiens, UniProt P01903+P01911, A100R/D57E/F55L/F60I/F76Y/I96L/L162R/M171V/P40L/Q125E/R42F/V115G/Y59C)
Details: cited from earlier work

YPKYVKQNTLKLAT [Influenza A virus peptide from the Hemagglutinin antigen, reference compound]
IC50: 130 nM
